## Ab-14 light chain CDR variants: yeast mating affinities

The measurements come from Li et al. 2023 (doi:10.1038/s41467-023-39022-2) through the FLAb antibody collection.

Binding partner: SARS-CoV-2 spike HR2 peptide, sequence PDVDLGDISGINAS.

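The parent was found by panning a naive human phage display library on the peptide. These sequences belong to a second round, designed from the earlier measurements on random variants of the parent. Group labels follow the data file (Ctrl: baseline library sampled from a position-specific scoring matrix, with some repeated check sequences; En: ensemble of fine-tuned language models; GP: Gaussian process model; HC: hill climbing; Gen: genetic algorithm; Gibbs: Gibbs sampling; a sequence that several methods proposed may carry one label only). AlphaSeq pools MATa yeast showing the antibodies with MATalpha yeast showing the peptide. Mating (16 h, 30 °C) was followed by selection of diploids and sequencing of their barcodes. Scores were corrected for input abundance and mapped to Kd with protein pairs of known affinity run in the same pool. Each pool was mated in six replicate cultures.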

Ab-14 is the parent antibody, in scFv form: VH, then a (GGGGS)3 linker, then VL. The heavy chain is unchanged in all variants.
VH: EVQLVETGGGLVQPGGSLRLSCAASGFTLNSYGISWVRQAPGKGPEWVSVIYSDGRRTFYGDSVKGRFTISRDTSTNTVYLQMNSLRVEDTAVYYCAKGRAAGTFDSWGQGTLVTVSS
VL: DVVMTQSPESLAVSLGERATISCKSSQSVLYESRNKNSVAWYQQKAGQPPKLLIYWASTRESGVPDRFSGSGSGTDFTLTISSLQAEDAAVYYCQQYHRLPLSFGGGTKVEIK

Each variant is given by its three light chain CDRs, as the data file delimits them; those of the parent are KSSQSVLYESRNKNSVA, WASTRES, QQYHRLPLS.
Affinities are written as log10 Kd with Kd in nM; a lower number is a better binder.
The mean shown is taken over the replicates in which the pair was detected.
The list is sorted by this average, lowest first.

For KLSQSVLYEERNKNSVA / NASTREV / QQYHRLPLS [GP_Gen], the assay gave -0.52 (6 of 6 replicates).
For MISQSFLIGSYAKNSVA / QTSTRES / QQYDRLPLS [En_HC], the assay gave -0.29 (6 of 6 replicates).
For KLSQSVEGEERNKNSVA / HASVREV / QQYHRLPLS [GP_Gibbs], the assay gave -0.20 (6 of 6 replicates).
For KLQQSMLYESRNKNSVA / NASQRMS / QQYHRLPLS [GP_Gen], the assay gave -0.09 (6 of 6 replicates).
For KSSPSVLYESANKNSVA / NASTRMS / QQYHRLPLS [GP_HC], the assay gave -0.04 (6 of 6 replicates).
For KSQQSVLYESGNKNSIA / DAMTRES / QQYHRLPLS [Ctrl], the assay gave 0.15 (6 of 6 replicates).
For KLEQGVDMESRNKNSVA / NAQMRES / QQYHRLPLS [GP_Gibbs], the assay gave 0.17 (6 of 6 replicates).
For KLLQSVLYESRNKNSVA / NASQRES / QQYHRLPLS [GP_Gen], the assay gave 0.23 (6 of 6 replicates).
For KLSITGLHESIDKKSIA / ERSTREN / QQYHRLPLS [En_HC], the assay gave 0.27 (6 of 6 replicates).
For KLQQQVQYESRNWNSVA / NASDRQS / QQYHRLPLS [GP_Gibbs], the assay gave 0.29 (6 of 6 replicates).
For MLHESTGLMSHKQSSIA / DNSTRED / QQYDRLPLS [En_Gen], the assay gave 0.33 (6 of 6 replicates).
For KFMQSMPYESRNKNSVA / EASQREL / QQYHRLPLS [GP_Gibbs], the assay gave 0.35 (6 of 6 replicates).
For HSSPSVWIESRNKNSVA / NASTRES / QQYHRLPLS [GP_HC], the assay gave 0.36 (6 of 6 replicates).
For KLSQSVLYESRNKNSVA / NASTRLS / QQYHRLPLS [GP_Gen], the assay gave 0.38 (6 of 6 replicates).
For KIAQSVLYESRNKNSVA / DASTRES / QQYHRLPLS [Ctrl], the assay gave 0.46 (6 of 6 replicates).
For KSSQSVEYEERNKQSVA / DASTRES / QQYHRLPLS [Ctrl], the assay gave 0.47 (6 of 6 replicates).
For KFGQMVLTGSYVKNSVA / QSSTREN / QQYDRLPLS [En_HC], the assay gave 0.58 (6 of 6 replicates).
For KLSPSVLPESRNNNSVA / KASTREQ / QQYHRLPLS [Ctrl], the assay gave 0.63 (6 of 6 replicates).
For KLGGATRFESSNKASIA / NNSTREE / QQYHRLPLS [En_HC], the assay gave 0.63 (6 of 6 replicates).
For KLQYSNLYGSRNKNSVA / NASTRLQ / QQYHRLPLS [GP_Gibbs], the assay gave 0.70 (6 of 6 replicates).
For SFTIEGLQQQEQYKSVA / GEQKTVD / QQYGRLPLS [En_Gibbs], the assay gave 0.71 (6 of 6 replicates).
For TISMHTSLFSQTINNVA / EVSTREQ / QQYDRLPLI [En_Gen], the assay gave 0.72 (6 of 6 replicates).
For SISGFMKSLSAHINSVA / DMTNREN / QQYDRLPLS [En_Gen], the assay gave 0.72 (6 of 6 replicates).
For KSSQSVLYELGNKNSVA / EASTRES / QQYHRLPLS [Ctrl], the assay gave 0.97 (6 of 6 replicates).
For SIRAVGCDNQRNHSNIA / DATQIED / QQYDMLPLS [En_Gibbs], the assay gave 1.06 (6 of 6 replicates).
For QLSMITGHVSMIKNNVA / EMETREN / QQYDRLPLS [En_Gen], the assay gave 1.26 (6 of 6 replicates).
For KSGQSVLYESRNKNSVA / WASTRES / QQYHRLPLR [Ctrl], the assay gave 1.27 (1 of 6 replicates).
For ILLQVTTEHGAALNNIA / EGARRND / QQYARLPLV [En_Gibbs], the assay gave 1.37 (6 of 6 replicates).
For KISAVMENQLKNRNSVA / ELVTRVN / QQYNRLPLS [En_Gen], the assay gave 1.50 (6 of 6 replicates).
For KSSQSVLMASRNNNSVA / WASTRES / QQYHRLPLS [Ctrl], the assay gave 2.01 (6 of 6 replicates).
For KISYQYRFEQLSKDNIA / EVVTRLK / QQYHRLPLS [En_HC], the assay gave 2.66 (5 of 6 replicates).

Picked from the list: the 2 lowest averages where every replicate gave a value.

{"CDR-L1": "KLSQSVLYEERNKNSVA", "CDR-L2": "NASTREV", "CDR-L3": "QQYHRLPLS", "group": "GP_Gen", "mean log10 Kd (nM)": "-0.52", "replicates with signal": "6/6"}
{"CDR-L1": "MISQSFLIGSYAKNSVA", "CDR-L2": "QTSTRES", "CDR-L3": "QQYDRLPLS", "group": "En_HC", "mean log10 Kd (nM)": "-0.29", "replicates with signal": "6/6"}

Of ten entries with the parent sequence, four were seen in most replicates (averages 0.34 to 2.37), three in one and three in none, so single entries are noisy.
Background: pairings of all light chain designs with three empty control strains gave a value in 4% of cases (median 2.64, 5th percentile 1.59). Values in that range, when seen in few replicates, are hard to tell from nonspecific mating.
A sequence measured in both rounds can read differently, since the two assays cover different ranges.
The authors' rule: three or more of the six replicates give a measured affinity, fewer mean a poor binder.